This test concerns the target human ribosomal protein S3 (purified recombinant, used in analytical gel filtration) (human) (UniProt P23396). The test can be described thus: SEC; analytical gel filtration, Superdex 200 10/30, 20 mM Tris-HCl pH 8.0, 300 mM NaCl, 0.5 ml/min; proteins alone (Sfm1 with or without SAH) or Sfm1 and human S3 mixed at 1:1 molar ratio; peak analysed by SDS-PAGE; apparent molecular weights.

Results on one substance are retold here after paper PMC4860837, “Structural basis for Sfm1 functioning as a protein arginine methyltransferase” (Cell Discovery, 2015).

On to “human ribosomal protein S3 (purified recombinant, used in analytical gel filtration) (from UniProt P23396 1-243) (natural protein)”, for which the stoichiometry N is 2.
